Key:
Assay type in all cases: cell-based, human
[1] = system: IL-6 secretion by endothelial cells (HMVEC); assay: AGE-induced inflammatory response determined by IL-6 ELISA; settings: 100 ng/ml TNFα or 300 μg/ml G-HSA, 24 hrs, vs control medium (FIG. 1)
Procedure: (§1) Human aortic (HAEC) and microvascular (HMVEC) endothelial cells (Clonetics) were cultured and subcultured according to manufacturer in growth medium (Clonetics): basal medium containing hEGF, hydrocortisone, VEGF, HFGF-B (with heparin), long R3-IGF-1, ascorbic acid, gentamicin/amphotericin and 5% FBS. These cell were allowed to reach >90% confluency before being subjected to experimental treatments. G-HSA was from US Biologicals. Tumor necrosis factor α (TNFα) was from R&D Systems.
HMVEC were treated with control medium or medium containing 100 ng/ml TNFα or 300 μg/ml G-HSA for 24 hrs. All treatments and controls were carried out in serum free media containing 0.2% albumin. Following treatment, cell media were collected and used for an IL-6 ELISA.
The IL-6 ELISA was carried out using human IL-6 DuoSet ELISA development kit as described by manufacturer (R&D Systems). Mouse anti-human IL-6 was used as the capture antibody (2 μg/ml) and biotinylated goat anti-human IL6 (200 ng/ml) was used as the detection antibody. The culture media were incubated with capture antibody for 2 h at room temperature in 96-well plates. The wells were washed three times with wash buffer (0.05% Tween-20 in phosphate buffered saline (PBS) pH 7.4) followed by incubation with detection antibody for 2 h at room temperature. […] Color development was read at 450 nm in a microplate reader.

[2] = system: MCP-1 secretion by endothelial cells (HAEC and HMVEC); assay: AGE-induced inflammatory response determined by MCP-1 ELISA; settings: 100 ng/ml TNFα or 300 μg/ml G-HSA, 24 hrs, vs control medium (FIG. 2)
Procedure: as §1, with “HAEC” for “Human aortic (HAEC)”, “HMVEC” for “microvascular (HMVEC) endothelial cells”, “cells” for “cell”, “TNFα” for “Tumor necrosis factor α (TNFα)”
Cells were treated with control medium or medium containing 100 ng/ml TNFα or 300 μg/ml G-HSA for 24 hrs. All treatments and controls were carried out in serum free media containing 0.2% albumin. Following treatment, media were collected and used for the MCP-1 ELISA.
MCP-1 ELISA was carried out using a DuoSet ELISA Development System for Human MCP-1 as described by the manufacturer (R&D Systems). 2 ug/ml of mouse anti-human MCP-1 was used as the capture antibody and 100 ng/ml biotinylated goat anti-human MCP-1 was used as the detection antibody. The culture media were incubated with capture antibody for 2 h at room temperature in 96-well plates. The wells were washed three times with wash buffer (0.05% Tween-20 in phosphate buffered saline (PBS) pH 7.4) followed by incubation with detection antibody for 2 h at room temperature. Color development was read at 450 nm in a microplate reader.

[3] = system: G-HSA induced secretion of IL-6 in endothelial cells; assay: High-throughput screening of compounds that block G-HSA produced induction of IL-6, IL-6 ELISA; settings: endothelial cells incubated with 300 μg/ml G-HSA; untreated cells 74 pg/ml
Procedure: The IL-6 ELISA was carried out using human IL-6 DuoSet ELISA development kit as described by manufacturer (R&D Systems). Mouse anti-human IL-6 was used as the capture antibody (2 μg/ml) and biotinylated goat anti-human IL6 (200 ng/ml) was used as the detection antibody. The culture media were incubated with capture antibody for 2 h at room temperature in 96-well plates. The wells were washed three times with wash buffer (0.05% Tween-20 in phosphate buffered saline (PBS) pH 7.4) followed by incubation with detection antibody for 2 h at room temperature. Following three washes, the wells were incubated with Streptavidin-HRP for 20 min. Color development was read at 450 nm in a microplate reader.
Endothelial cells were incubated in control media or media containing 300 μg/ml G-HSA or media containing 300 μg/ml G-HSA and 10 μM of a test compound. […] Although the results in FIG. 3 are only for seven compounds, the method of the present invention is designed for high-throughput screening such that greater than 250 compounds can be screened in duplicate by one person in less than one week.

glycated human serum albumin [G-HSA]
increase in IL-6 secretion [1]: 87%
increase in MCP-1 secretion [2]: 65%
IL-6 secretion [3]: 150 pg/mL
